This test has as its system Ceritinib resistant MGH049 cells. In words: Cell colony formation assay with ceritinib resistant MGH049 cells.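 Further: tested compounds are SHP2 inhibitors given alone, colonies fixed and crystal violet stained, DMSO reference taken as the mean of six readings.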 The conditions noted are these: Homo sapiens, 168 h, read-out: Normalized Crystal Violet abs. (590 nm) DMSO. It counts as cell-based. On the procedure: The cell colony formation assay with ceritinib resistant MGH049 cells were used to assess the anti-proliferative effect of ceritinib in combination with SHP2 inhibitors of Table 1.
Ceritinib resistant MGH049 cells were plated into 12-well tissue culture plates (2×10^5 cells/well) in a total volume of 0.5 mL. After 24 hours, compounds were added to the plates. Cells were exposed for 7 days to either DMSO, ceritinib (0.5 μM), a compound of Table 1 (3 μM), or the combination of ceritinib (0.5 μM) and a compound of Table 1 (3 μM). At the end points of the assays, cells were fixed, stained with crystal violet, and photographed. The crystal violet staining was then extracted in 20% acetic acid and measured as absorbance at 590 nm in duplicates. The absorbance was normalized to the average of six readings in DMSO (without compound) which was set at 100.

For four molecules, activity results are on record in patent US12053470B2, “Pharmaceutical combination comprising an ALK inhibitor and a SHP2 inhibitor” (Novartis AG, priority 2017, dated 2024).

Each structure is given as a SMILES string.

As for `CC1(CN)CCN(c2cnc(-c3cccc(Cl)c3Cl)c(N)n2)CC1` [compound 3, 6-(4-(aminomethyl)-4-methylpiperidin-1-yl)-3-(2,3-dichlorophenyl)pyrazin-2-amine], the activity at 3 µM came to 90.2%.

Take `C[C@@H]1OCC2(CCN(c3nc4n[nH]c(-c5ccnc(NC6CC6)c5Cl)c4c(=O)n3C)CC2)[C@@H]1N` [compound 42, 6-((3S,4S)-4-amino-3-methyl-2-oxa-8-azaspiro[4.5]decan-8-yl)-3-(3-chloro-2-(cyclopropylamino)pyridin-4-yl)-5-methyl-2,5-dihydro-4H-pyrazolo[3,4-d]pyrimidin-4-one]: the activity at 3 µM was 51.7%.

With `CC1(CN)CCN(c2cnc(Sc3cccnc3C(F)(F)F)c(N)n2)CC1` [Compound No. 4, 6-(4-(aminomethyl)-4-methylpiperidin-1-yl)-3-((2-(trifluoromethyl)pyridin-3-yl)thio)pyrazin-2-amine], the activity at 3 µM amounted to 97.1%.

On to `Nc1nccc(Sc2cnc(N3CCC4(CCC[C@H]4N)CC3)cn2)c1Cl` [compound 23, (R)-8-(5-((2-amino-3-chloropyridin-4-yl)thio)pyrazin-2-yl)-8-azaspiro[4.5]decan-1-amine], for which the activity at 3 µM amounted to 34.8%.
